The chains behind the UniProt entries cited, without tags or fusion partners.
UniProt O43193, whole entry: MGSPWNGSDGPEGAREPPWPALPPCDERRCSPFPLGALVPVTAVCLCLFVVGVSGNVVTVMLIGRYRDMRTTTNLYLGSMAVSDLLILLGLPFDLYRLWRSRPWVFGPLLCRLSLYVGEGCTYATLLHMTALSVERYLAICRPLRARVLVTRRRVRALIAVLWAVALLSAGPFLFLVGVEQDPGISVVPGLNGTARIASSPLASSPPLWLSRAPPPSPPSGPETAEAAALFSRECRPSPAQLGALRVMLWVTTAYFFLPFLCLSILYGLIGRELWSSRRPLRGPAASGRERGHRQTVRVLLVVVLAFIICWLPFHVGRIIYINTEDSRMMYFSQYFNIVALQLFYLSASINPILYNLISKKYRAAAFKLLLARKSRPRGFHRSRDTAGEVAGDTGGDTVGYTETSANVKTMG

In US9133235B2, “Macrocyclic antagonists of the motilin receptor for treatment of gastrointestinal dysmotility disorders” (Ocera Therapeutics, Inc., priority 2006, dated 2015):

Legend:
[1] = target: T1, human motilin receptor (Homo sapiens, UniProt O43193); assay: Aequorin functional assay (motilin receptor); details: functional activity, antagonist testing vs motilin 0.5 nM (EC80)
[2] = test system: Caco-2 cells; assay: Caco-2 permeability; details: 10 μM, 60 min, 37° C.
[3] = target: T1, human motilin receptor; assay: Competitive radioligand binding assay (motilin receptor); details: [125I]-motilin competition, membranes of CHO cells with human motilin receptor
[4] = Pharmacokinetic analysis in rat (i.v., s.c., p.o.)

| Ki [3] | Structure (SMILES) | also measured |
| --- | --- | --- |
| – | CC(C)[C@H]1NC(=O)[C@@H](Cc2cccc(Cl)c2)NCCOc2ccccc2CCCNC(=O)[C@H](Cn2cccn2)NC1=O | IC50 [1]: < 100 nM; Papp A to B ([2]; apical to basolateral): 15 cm/sec × 10^−6; Papp B to A ([2]; basolateral to apical): 17 cm/sec × 10^−6 |
| < 100 nM | CC(C)[C@H]1NC(=O)[C@@H](Cc2cccc(Cl)c2)NCCOc2ccccc2CCCNC(=O)[C@H](Cn2ccnc2)NC1=O | – |
| < 1000 nM | CC(C)[C@H]1NC(=O)[C@@H](Cc2cccc(F)c2)N(C)[C@@H](C)COc2ccccc2CCCNC(=O)[C@H](CN(C)C)NC1=O | – |
| < 100 nM | CC(C)[C@H]1NC(=O)[C@@H](Cc2cccc(F)c2)N[C@@H](C)COc2ccccc2CCCNC(=O)[C@H](CO)NC1=O | Clearance ([4]; i.v.): 65 mL/min/kg; Elimination (t1/2, min) ([4]; i.v., typical dose 2 mg/kg): 25 min; Clearance ([4]; s.c.): 42 mL/min/kg; Elimination (t1/2, min) ([4]; s.c., typical dose 2 mg/kg): 132 min; IC50 [1]: < 10 nM |
| < 100 nM | CCC[C@@H]1NC(=O)[C@@H](C(C)C)NC(=O)[C@@H](Cc2cccc(F)c2)NC(C(C)C)COc2ccccc2CCCNC1=O (stereo partly drawn) | IC50 [1]: < 100 nM |
| < 10 nM | CCC[C@@H]1NC(=O)[C@@H](C(C)C)NC(=O)[C@@H](Cc2cccc(F)c2)NC(CO)COc2ccccc2CCCNC1=O (stereo partly drawn) | IC50 [1]: < 10 nM |
| < 100 nM | CCC[C@@H]1NC(=O)[C@@H](C(C)C)NC(=O)[C@@H](Cc2cccc(F)c2)N[C@@H](C)COc2c(F)cccc2CCCNC1=O | Clearance ([4]; i.v.): 27 mL/min/kg; Elimination (t1/2, min) ([4]; i.v., typical dose 2 mg/kg): 55 min; Bioavailability (oral) ([4]; p.o., in the presence of 10% beta-cyclodextrin): 21%; Elimination (t1/2, min) ([4]; p.o., typical dose 8 mg/kg, in the presence of 10% beta-cyclodextrin): 117 min; IC50 [1]: < 10 nM |
| < 10 nM | CCC[C@@H]1NC(=O)[C@@H](C(C)C)NC(=O)[C@@H](Cc2cccc(F)c2)N[C@@H](C)COc2cccc(F)c2CCCNC1=O | IC50 [1]: < 1 nM |
| < 100 nM | CC(C)C1NC(=O)C(Cc2ccc(Cl)cc2)NCCOc2ccccc2CCCNC(=O)C(CN(C)C)NC1=O (single isomer, unassigned) | – |
| < 1000 nM | CC(C)C1NC(=O)C(Cc2ccc(O)cc2)NCCOc2ccccc2CCCNC(=O)C(CNC(=N)N)NC1=O (single isomer, unassigned) | – |
| < 100 nM | CC(C)C1NC(=O)C(Cc2cccc(Cl)c2)NCCOc2ccccc2CCCNC(=O)C(CCC(=N)N)NC1=O (single isomer, unassigned) | – |
| < 100 nM | CC(C)C1NC(=O)C(Cc2cccc(Cl)c2)NCCOc2ccccc2CCCNC(=O)C(CN(C)C)NC1=O (single isomer, unassigned) | – |
| < 100 nM | CC(C)C1NC(=O)C(Cc2cccc(Cl)c2)NCCOc2ccccc2CCCNC(=O)C(CNC2=NCCN2)NC1=O (single isomer, unassigned) | – |
| – | CC1COc2ccccc2CCCNC(=O)C(CNC(=N)N)NC(=O)C(C(C)C)NC(=O)C(Cc2cccc(Cl)c2)N1 (single isomer, unassigned) | Ki ([3]; tested form: TFA): < 1000 nM |
| < 1000 nM | CCCC1NC(=O)C(C(C)C)NC(=O)C(Cc2cc(I)c(O)c(I)c2)NCCOc2ccccc2CCCNC1=O (single isomer, unassigned) | – |
| < 10 nM | CC(C)C1NC(=O)C(Cc2cccc(C(F)(F)F)c2)NCCOc2ccccc2CCCNC(=O)C(CN(C)C)NC1=O (single isomer, unassigned) [502a] | – |
| < 100 nM | CC(C)C1NC(=O)C(Cc2cccc(C(F)(F)F)c2)NCCOc2ccccc2CCCNC(=O)C(CN(C)C)NC1=O (single isomer, unassigned) [502b] | – |

| Ki [3] | Structure (SMILES) | also measured |
| --- | --- | --- |
| < 10 nM | CC(C)C1NC(=O)C(Cc2cccc(C(F)(F)F)c2)NCCOc2ccccc2CCCNC(=O)C(CNC(=N)N)NC1=O (single isomer, unassigned) [503a] | – |
| < 100 nM | CC(C)C1NC(=O)C(Cc2cccc(C(F)(F)F)c2)NCCOc2ccccc2CCCNC(=O)C(CNC(=N)N)NC1=O (single isomer, unassigned) [503b] | – |
| < 10 nM | CC(C)C1NC(=O)C(Cc2cccc(C(F)(F)F)c2)NCCOc2ccccc2CCCNC(=O)C(CNC(=N)N)NC1=O (single isomer, unassigned) [503c] | – |
| < 100 nM | CC(C)C1NC(=O)C(Cc2cccc(Cl)c2)NCCOc2ccccc2CCCNC(=O)C(Cn2cccn2)NC1=O (single isomer, unassigned) [511a] | – |
| < 1000 nM | CC(C)C1NC(=O)C(Cc2cccc(Cl)c2)NCCOc2ccccc2CCCNC(=O)C(Cn2cccn2)NC1=O (single isomer, unassigned) [511b] | – |
| < 100 nM | CNCC1NC(=O)C(C(C)C)NC(=O)C(Cc2cccc(Cl)c2)NCCOc2ccccc2CCCNC1=O (single isomer, unassigned) [512a] | – |
| < 1000 nM | CNCC1NC(=O)C(C(C)C)NC(=O)C(Cc2cccc(Cl)c2)NCCOc2ccccc2CCCNC1=O (single isomer, unassigned) [512b] | – |
| < 10 nM | CC1CNC(=O)C(CN(C)C)NC(=O)C(C(C)C)NC(=O)C(Cc2cccc(F)c2)NCCOc2ccccc2C1 (single isomer, unassigned) [515a] | – |
| < 100 nM | CC1CNC(=O)C(CN(C)C)NC(=O)C(C(C)C)NC(=O)C(Cc2cccc(F)c2)NCCOc2ccccc2C1 (single isomer, unassigned) [515b] | – |
| < 10 nM | CC1COc2ccccc2CCCNC(=O)C(CNC(=N)N)NC(=O)C(C(C)C)NC(=O)C(Cc2cccc(Cl)c2)N1 (single isomer, unassigned) [516a] | – |
| < 100 nM | CC1COc2ccccc2CCCNC(=O)C(CNC(=N)N)NC(=O)C(C(C)C)NC(=O)C(Cc2cccc(Cl)c2)N1 (single isomer, unassigned) [516b] | – |
| < 10 nM | CC1COc2ccccc2CCCNC(=O)C(CC2CC2)NC(=O)C(C(C)C)NC(=O)C(Cc2cccc(F)c2)N1 (single isomer, unassigned) [554a] | – |
| < 1000 nM | CC1COc2ccccc2CCCNC(=O)C(CC2CC2)NC(=O)C(C(C)C)NC(=O)C(Cc2cccc(F)c2)N1 (single isomer, unassigned) [554b] | – |
| < 100 nM | CC1COc2ccccc2CCCNC(=O)C(CC2CC2)NC(=O)C(C(C)C)NC(=O)C(Cc2cccc(F)c2)N1 (single isomer, unassigned) [554c] | – |
| < 1000 nM | CC1COc2ccccc2CCCNC(=O)C(CC2CC2)NC(=O)C(C(C)C)NC(=O)C(Cc2cccc(F)c2)N1 (single isomer, unassigned) [589a] | – |
| > 1000 nM | CC1COc2ccccc2CCCNC(=O)C(CC2CC2)NC(=O)C(C(C)C)NC(=O)C(Cc2cccc(F)c2)N1 (single isomer, unassigned) [589b] | – |
